System: Mushroom Tyrosinase (Sigma T3824)
Experiment: General in vitro tyrosinase inhibition assay (L-Dopa oxidation to dopachrome)
Assay type: biochemical
Conditions: 0.5 mM L-Dopa, pH 7.0, 30° C., 475 nm, 18 Units Mushroom Tyrosinase

## O=S(=O)(O)OCCSc1cc(O)ccc1O
  EC50: 4.81 mM

Reference: patent US20080286219A1, “Hydroquinone derivative skin brightening compounds” (priority 2007, published 2008)
